Biological target: T1, recombinant human HDAC2 (Homo sapiens, UniProt Q92769)
T1 construct: purchased BPS Bioscience
Assay: Fluorogenic HDAC inhibition assay, HDAC2 (Boc-L-Lys(Ac)-AMC substrate)
Assay type: biochemical
Method: 10 μL of the enzyme stock was added to 30 μL of the probes and preincubated for different preincubation times.

Amino acid sequences for entries named in this document (tags omitted).
UniProt Q92769, whole entry: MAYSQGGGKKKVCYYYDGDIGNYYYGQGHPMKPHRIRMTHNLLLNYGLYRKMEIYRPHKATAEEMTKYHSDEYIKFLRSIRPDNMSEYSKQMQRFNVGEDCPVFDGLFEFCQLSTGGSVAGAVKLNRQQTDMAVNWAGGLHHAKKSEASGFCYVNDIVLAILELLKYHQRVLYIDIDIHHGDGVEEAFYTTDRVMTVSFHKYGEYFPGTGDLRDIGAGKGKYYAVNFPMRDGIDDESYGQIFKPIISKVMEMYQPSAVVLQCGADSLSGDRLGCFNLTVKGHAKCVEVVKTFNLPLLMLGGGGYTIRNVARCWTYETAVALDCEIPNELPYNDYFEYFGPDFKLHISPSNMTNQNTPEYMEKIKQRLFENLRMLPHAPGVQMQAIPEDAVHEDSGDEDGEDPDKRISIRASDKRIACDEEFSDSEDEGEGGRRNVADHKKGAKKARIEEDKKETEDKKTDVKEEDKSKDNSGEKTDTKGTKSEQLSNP

| increase in inhibition of HDAC2 upon preincubation (IC50 ratio) (preincubation 3 h vs 5 min) | Structure (SMILES) | IC50 |
| --- | --- | --- |
| 7.1 fold | [N-]=[N+]=NCc1cc(COC(=O)NCc2ccc(C(=O)Nc3cc(-c4cccs4)ccc3N)cc2)cc(N=[N+]=[N-])c1 [probe 2c, 3-azido-5-(azidomethyl)benzyl 4-((2-amino-5-(thiophen-2-yl)phenyl)carbamoyl)benzylcarbamate] |  |
|  | [N-]=[N+]=Nc1ccc(C(=O)Nc2cc(-c3ccccc3)ccc2N)cc1 [probe 1a, N-(4-amino-[1,1′-biphenyl]-3-yl)-4-azidobenzamide] | 210 nM |
|  | [N-]=[N+]=Nc1ccc(C(=O)Nc2cc(-c3cccs3)ccc2N)cc1 [probe 1b, N-(2-amino-5-(thiophen-2-yl)phenyl)-4-azidobenzamide] | 110 nM |

From patent US9108943B2, “Photoreactive benzamide probes for histone deacetylase 2” (THE BOARD OF TRUSTEES OF THE UNIVERSITY OF ILLINOIS, priority 2013, dated 2015)
